pKi: −log10 of the molar value.

Sequences of proteins named here, by UniProt entry; tags and fusion partners are left off.
UniProt P10415, whole entry: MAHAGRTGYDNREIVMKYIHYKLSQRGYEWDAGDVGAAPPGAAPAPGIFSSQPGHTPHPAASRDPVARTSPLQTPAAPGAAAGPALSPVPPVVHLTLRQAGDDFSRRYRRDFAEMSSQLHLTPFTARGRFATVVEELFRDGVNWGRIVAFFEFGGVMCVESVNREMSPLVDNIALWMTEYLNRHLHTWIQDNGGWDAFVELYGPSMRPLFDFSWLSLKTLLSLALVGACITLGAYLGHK

This assay addresses GST-Bc1-2 (Homo sapiens, UniProt P10415). As to the kind of experiment: Time Resolved-Fluorescence Resonance Energy Transfer (TR-FRET) Bcl-2 binding assay with F-Bak peptide probe. The note with it: GST-Bcl-2 1 nM, F-Bak probe 100 nM, Tb-anti-GST 1 nM; '<' = below limit of detection.

In turn, `CC1(C)CCC(CN2CCN(c3ccc(C(=O)NS(=O)(=O)c4cnc(OC[C@H]5C[C@H]6C[C@@H]5C[C@@]6(C)O)c(Cl)c4)c(Oc4cnc5[nH]ccc5c4)c3)CC2)=C(c2ccc(Cl)cc2)C1` [Example 343, N-[(5-chloro-6-{[(1R,2S,4R,5R)-5-hydroxy-5-methylbicyclo[2.2.1]hept-2-yl]methoxy}pyridin-3-yl)sulfonyl]-4-(4-{[2-(4-chlorophenyl)-4,4-dimethylcyclohex-1-en-1-yl]methyl}piperazin-1-yl)-2-(1H-pyrrolo[2,3-b]pyridin-5-yloxy)benzamide] had a pKi of more than 11.00.

`CC1(C)CCC(CN2CCN(c3ccc(C(=O)NS(=O)(=O)c4ccc(N[C@@H]5CCN(C6COC6)C5)c([N+](=O)[O-])c4)c(Oc4cnc5[nH]ccc5c4)c3)CC2)=C(c2ccc(Cl)cc2)C1` [Example 224, 4-(4-{[2-(4-chlorophenyl)-4,4-dimethylcyclohex-1-en-1-yl]methyl}piperazin-1-yl)-N-[(3-nitro-4-{[(3R)-1-(oxetan-3-yl)pyrrolidin-3-yl]amino}phenyl)sulfonyl]-2-(1H-pyrrolo[2,3-b]pyridin-5-yloxy)benzamide] gave a pKi of more than 11.00.

For orientation: pKi means −log10 of the Ki, conventionally taken in molar units. Lower therefore signals a high Ki.

The values above are taken from patent publication US8580794B2 (AbbVie Inc., priority 2009, dated 2013).
